This is an account of results in patent publication US8436186B2, “Thiazolyl piperidine derivatives” (Merck Patent Gesellschaft mit beschrankter Haftung, priority 2008, dated 2013).

Chains of the proteins cited; added tags and fusions are not shown.
UniProt Q9NYA1, whole entry: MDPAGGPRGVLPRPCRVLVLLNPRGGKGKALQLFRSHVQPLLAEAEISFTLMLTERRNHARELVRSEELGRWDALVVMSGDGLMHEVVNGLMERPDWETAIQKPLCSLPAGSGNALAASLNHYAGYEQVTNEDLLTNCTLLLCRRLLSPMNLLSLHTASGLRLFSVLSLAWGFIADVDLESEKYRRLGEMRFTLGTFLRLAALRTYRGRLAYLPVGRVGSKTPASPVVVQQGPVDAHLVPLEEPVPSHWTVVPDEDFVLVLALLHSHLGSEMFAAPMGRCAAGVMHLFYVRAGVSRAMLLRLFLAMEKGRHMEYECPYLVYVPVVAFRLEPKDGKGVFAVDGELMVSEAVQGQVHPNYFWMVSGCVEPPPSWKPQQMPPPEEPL

SMILES strings stand for the structures.

The test concerns the target SphK1 (Homo sapiens, UniProt Q9NYA1). Description: SphK1 384-well flashplate kinase assay. The format is biochemical. The settings on record: enzyme assay. As for the experimental part:
The kinase assay is carried out as a 384-well flashplate assay.
5 nM modified SphK1, 800 nM omega-biotinyl-D-erythro-sphingosine and 1 μM ATP (with 0.3 μCi of ^33P-ATP/well) are incubated in a total volume of 50 μl (25 mM HEPES, 5 mM MgCl2, 1 mM dithiothreitol, 0.01% of Brij35, 0.1% of BSA (fatty acid-free), pH 7.4) without or with test substance (5-10 concentrations) at 30° C. for 120 min. The reaction is terminated using 25 μl of 200 mM EDTA solution, filtered off with suction at room temperature after 30 min, and the cavities are washed 3 times with 100 μl of 0.9% NaCl solution. The non-specific proportion of the kinase reaction (blank) is determined using 0.5 mM NaCl. Radioactivity is measured in topcount. IC50 values are calculated using RS1.

For `CC(C)(C)OC(=O)NCCN1CCC(c2nc(-c3ccc4c(c3)C(C)(C)CCC4(C)C)cs2)CC1` [Compound A37, tert-butyl (2-{4-[4-(5,5,8,8-tetramethyl-5,6,7,8-tetrahydronaphthalen-2-yl)thiazol-2-yl]piperidin-1-yl}ethyl)carbamate], the IC50 (in general, the concentration at which inhibition is half-maximal) was > 10 µM.
